From ChEMBL document CHEMBL1127403, “L-N6-(1-iminoethyl)lysine: a selective inhibitor of inducible nitric oxide synthase” (J Med Chem, 1994)

Chains of the proteins cited; added tags and fusions are not shown.
UniProt P29476, whole entry: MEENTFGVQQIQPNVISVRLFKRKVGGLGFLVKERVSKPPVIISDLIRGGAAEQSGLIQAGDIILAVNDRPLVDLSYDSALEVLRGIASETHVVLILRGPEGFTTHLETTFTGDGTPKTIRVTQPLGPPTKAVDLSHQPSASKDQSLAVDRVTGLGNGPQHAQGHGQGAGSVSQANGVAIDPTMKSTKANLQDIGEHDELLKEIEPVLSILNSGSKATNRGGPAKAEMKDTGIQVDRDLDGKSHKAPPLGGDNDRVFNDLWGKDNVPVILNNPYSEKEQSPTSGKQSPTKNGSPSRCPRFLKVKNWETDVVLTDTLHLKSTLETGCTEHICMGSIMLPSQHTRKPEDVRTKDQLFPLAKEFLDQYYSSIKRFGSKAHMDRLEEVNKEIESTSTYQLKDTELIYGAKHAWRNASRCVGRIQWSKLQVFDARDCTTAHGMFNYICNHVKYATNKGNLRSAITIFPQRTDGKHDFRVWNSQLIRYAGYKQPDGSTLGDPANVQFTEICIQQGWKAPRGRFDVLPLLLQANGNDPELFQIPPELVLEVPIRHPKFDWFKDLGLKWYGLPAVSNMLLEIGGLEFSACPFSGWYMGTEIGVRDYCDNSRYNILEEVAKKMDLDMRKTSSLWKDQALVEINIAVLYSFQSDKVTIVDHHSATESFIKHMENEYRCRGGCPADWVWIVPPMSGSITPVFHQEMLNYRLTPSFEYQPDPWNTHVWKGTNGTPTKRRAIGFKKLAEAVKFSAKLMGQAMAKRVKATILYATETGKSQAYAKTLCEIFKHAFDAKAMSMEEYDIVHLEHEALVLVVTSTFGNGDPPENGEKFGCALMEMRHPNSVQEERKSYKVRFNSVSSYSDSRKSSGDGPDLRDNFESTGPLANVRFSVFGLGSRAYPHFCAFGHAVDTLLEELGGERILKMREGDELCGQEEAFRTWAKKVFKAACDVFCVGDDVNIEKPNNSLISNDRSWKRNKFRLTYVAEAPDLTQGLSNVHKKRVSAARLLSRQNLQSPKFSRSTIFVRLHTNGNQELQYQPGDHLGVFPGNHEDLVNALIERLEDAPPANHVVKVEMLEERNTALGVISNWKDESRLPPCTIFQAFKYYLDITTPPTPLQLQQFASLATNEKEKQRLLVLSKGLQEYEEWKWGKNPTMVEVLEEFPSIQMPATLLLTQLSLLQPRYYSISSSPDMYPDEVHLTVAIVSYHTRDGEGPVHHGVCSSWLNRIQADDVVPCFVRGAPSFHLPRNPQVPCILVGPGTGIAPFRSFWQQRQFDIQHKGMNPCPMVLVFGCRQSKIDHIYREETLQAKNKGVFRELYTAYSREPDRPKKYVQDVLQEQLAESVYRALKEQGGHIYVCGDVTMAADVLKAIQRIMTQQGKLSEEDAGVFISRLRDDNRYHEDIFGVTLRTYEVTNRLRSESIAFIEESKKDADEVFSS

Molecular target: Nitric oxide synthase 1 (Rattus norvegicus, UniProt P29476)
Assay: Tested for inhibition of rat brain […] nitric oxide synthase

IC50: 2200 nM
SMILES: CC(=N)NCCC[C@H](N)C(=O)O [L-NIO]
